For 7 compounds, inhibition results are on record in ChEMBL document CHEMBL1914424, “Evaluation of apoptotic effect of cyclic imide derivatives on murine B16F10 melanoma cells” (Bioorg Med Chem, 2011).

Holding throughout (assay type): functional, cell-based
Test [1] has as its system B16-F10. Kind of test: Cytotoxicity against mouse B16F10 cells after 24 hrs by MTT assay.
In test [2] the test system is B16-F10. Kind of test: Cytotoxicity against mouse B16F10 cells after 48 hrs by MTT assay. In general terms: Formazan colour is commonly taken as a measure of viable cells.
For test [3], the system named is B16-F10. In words: Cytotoxicity against mouse B16F10 cells after 72 hrs by MTT assay.

For `O=C1c2cccc3c(Cl)ccc(c23)C(=O)N1Cc1ccc(S(=O)(=O)N/N=C/c2ccc([N+](=O)[O-])cc2)cc1`, in test [1], the inhibition entry is “Dose-dependent effect”.

With `O=C1c2cccc3cccc(c23)C(=O)N1Cc1ccccc1`, the inhibition result in test [1], in test [2] and in test [3] was “Dose-dependent effect” each time.

On to `O=C1c2cccc3cccc(c23)C(=O)N1c1ccccc1`, for which, in test [1], the inhibition entry was “Dose-dependent effect”.

Regarding `O=C1c2cccc3cccc(c23)C(=O)N1CCc1ccc(S(=O)(=O)N/N=C/c2ccc([N+](=O)[O-])cc2)cc1`, the inhibition entry in test [1] was “Dose-dependent effect”.

For the compound `O=C1c2cccc3cccc(c23)C(=O)N1CCc1ccc(S(=O)(=O)N/N=C/c2ccc(O)cc2)cc1`, the inhibition result in test [1] was “Dose-dependent effect”.

Turning to `O=C1c2cccc3cccc(c23)C(=O)N1CCc1ccc(S(=O)(=O)N/N=C/c2ccccc2)cc1`, the inhibition result in test [1] was “Dose-dependent effect”.

Take `O=C1c2cccc3cccc(c23)C(=O)N1CCc1ccccc1`: in test [1], the inhibition result was “Dose-dependent effect”.
